The test system of experiment [1] is Lactic acid bacteria (LAB). Kind of experiment: Soft-agar overlay assay of pediocin triple variants (indicator strain not stated).
Experiment [2] deals with L. fermentum CCUG 72619. It counts as cell-based, Lactobacillus fermentum.

As for “Engineered pediocin PA-1 with [listing 1 of 3 here]”, in experiment [1], the “Antibacterial activity compared to pediocin double variant K1A/T22A” value is “None of the pediocin triple variants appeared to further increase activity”.
Take virginiamycin: the “Lactic and acetic acid levels” value in experiment [2] is “significantly lower”.
As for “Engineered pediocin PA-1 with [listing 2 of 3 here]”, in experiment [1], the “Antibacterial activity compared to pediocin double variant K1A/T22A” value is “None of the pediocin triple variants appeared to further increase activity”.
On the same count and under the same terms, the same measure for “Engineered pediocin PA-1 with [listing 3 of 3 here]”: “None of the pediocin triple variants appeared to further increase activity”.
